How the values were obtained:
[1] = in vitro; details: mouse, RAW264.7 cells; at 8 µg/mL
[2] = in vitro; details: mouse, RAW264.7 cells; at 2 µg/mL
[3] = in vitro; details: mouse, RAW264.7 cells; at 0.5 µg/mL
[4] = in vitro; details: mouse, RAW264.7 cells; at 32 µg/mL
[5] = in vitro; details: mouse, RAW264.7 cells

CNC(=N)NCCC[C@H](N)C(=O)O [TILARGININE]
viability at 8 ug/mL [1]: 100% | viability at 2 ug/mL [2]: 100% | viability at 0.5 ug/mL [3]: 100% | viability at 32 ug/mL [4]: 100% | viability at 128 ug/mL [5]: 88%

From ChEMBL document CHEMBL5625274, “Improved synthesis, molecular modeling and anti-inflammatory activity of new fluorinated dihydrofurano-naphthoquinone compounds” (Bioorg Med Chem Lett, 2024)
